US9803002B2, “Anti-wall teichoic antibodies and conjugates” (Genentech, Inc., priority 2013, dated 2017)

What was measured:
Wood46 = experiment: Cell based FRET cleavage assay; parameters: species or system Staphylococcus aureus; details: 2 μM FRET peptide, 10^8 and 10^7 cells/ml, 37° C.
Description: (§1) The thio-S4497-MP-K(Tamra)[…](Fluorescein) (“core peptide” disclosed as SEQ ID NO: 125) FRET conjugate and non-binding control FRET conjugate, thio-trastuzumab-MP-K(Tamra)[…](Fluorescein) (“core peptide” disclosed as SEQ ID NO: 125), were incubated with log phase cultures of Wood46 (FIG. 28) and the wild type, USA300 (FIG. 29), at cell densities of 10^8 cells/ml and 10^7 cells/ml in tryptic soy broth (TSB). The final concentration of MP-Lys(TAMRA)-[…]fluorescein) (“core peptide” disclosed as SEQ ID NO: 125) for all wells was 2 μM. Fluorescence was monitored over time at 37° C., excitation λ495 nm/emission λ518 nm. […] The linker unit MP-K(Tamra)[…](Fluorescein) (“core peptide” disclosed as SEQ ID NO: 125) is cleaved in both Wood46 and USA300 when conjugated to an antibody that binds S. aureus. Validating the cleavage of this model linker in USA300 was critical due to its relevance to the clinical strain of MRSA that a potential therapeutic antibody-antibiotic conjugate (AAC) would target. […] Cell density affects the rate of cleavage, with cleavage occurring earlier in cultures of the higher cell density.
(§2) Cultures of Wood46 and USA300 were inoculated with a 1:200 dilution of overnight cultures (0.1 ml in 20 ml) in TSB and incubated at 37° C. with shaking. […] Plates were incubated at 37° C. and fluorescence was monitored over time, excitation λ495 nm/emission λ518 nm, for 210 minutes.

USA300 = experiment: Cell based FRET cleavage assay; parameters: species or system Staphylococcus aureus; details: 2 μM FRET peptide, 10^8 and 10^7 cells/ml, 37° C.
Description: as §1, §2

## thio-trastuzumab-MP-K(Tamra)GGAFAGGGK(Fluorescein): non-binding control FRET conjugate on anti-Her2 thioMab trastuzumab
Wood46
  fluorescence over time (linker cleavage): did not show an increase in fluorescence
USA300
  fluorescence over time (linker cleavage): did not show an increase in fluorescence
